Measured values published in ChEMBL document CHEMBL2440012, “Design, synthesis and anticonvulsant properties of new N-Mannich bases derived from 3-phenylpyrrolidine-2,5-diones” (Bioorg Med Chem, 2013).

System: Mus musculus
Assay: Protection index, ratio of TD50 for neurotoxicity in ip dosed albino CF1 mouse by rotorod test to ED50 for anticonvulsant activity in ip dosed albino CF1 mouse by 6 Hz psychomotor seizure test
Format: functional

CC[C@@H](C(N)=O)N1CCCC1=O
Ratio TD50/ED50: >25.77
